Literature values, collected in patent US20210235703A1, “DISINFECTANT FOR DRINKABLE WATER, FOOD CONTACT, INDUSTRY, SPAS, SWIMMING POOLS AND AIR STERILIZATION” (INT'L CAPITAL INVESTMENT LLC, priority 2015, published 2021).

Substance: chlorous acid
- pKa for the chlorite ion/chlorous acid equilibrium: 1.8
